Experiments:
[1] = biological target: T1, Opioid receptors; mu & kappa (Homo sapiens) (UniProt P41145+P35372); assay: Ratio of Ki at mu-opioid receptor to Ki at kappa opioid receptor; settings: Cavia porcellus
[2] = biological target: T1, Opioid receptors; mu & kappa (Homo sapiens); assay: Ratio of Ki at mu-opioid receptor to Ki at kappa oioid receptor; settings: Cavia porcellus

SMILES	Ratio [1]	Ratio [2]
CN(C(=O)COc1cc(Cl)c(Cl)c(Cl)c1Cl)[C@@H]1CCCC[C@H]1N1CCCCCCC1	640	–
CN(C(=O)COc1cc(Cl)cc(Cl)c1)[C@@H]1CCCC[C@H]1N1CCCCCC1	110	–
CN(C(=O)COc1cc(Cl)c(Cl)c(Cl)c1)[C@@H]1CCCC[C@H]1N1CCCCCCC1	–	280
CN(C(=O)COc1ccc(Cl)c(Cl)c1)[C@@H]1CCCC[C@H]1N1CCCC1	18	–
CN(C(=O)COc1c(Cl)cccc1Cl)[C@@H]1CCCC[C@H]1N1CCCC1	1.9	–
Cc1cc(OCC(=O)N(C)[C@@H]2CCCC[C@H]2N2CCCCCC2)cc(C)c1Cl	120	–
CN(C(=O)COc1cc(Cl)c(Cl)c(Cl)c1Cl)[C@@H]1CCCC[C@H]1N1CCCCCC1	110	–
CN(C(=O)COc1cc(Cl)c(Cl)c(Cl)c1)[C@@H]1CCCC[C@H]1N1CCCC1	12	–
CN(C(=O)COc1ccc(Cl)cc1)[C@@H]1CCCC[C@H]1N1CCCC1	6.7	–
